Bioassay records from PubChem.
uPA generation: blocks generation of uPA at the cell surface. cell surface uPA generation assay, qHTS. Potency, µM (highest dose often 38.3 µM), for the others: top-dose activity change, negative = inhibition, usual class: inhibitors. actives 0.31% (n = 330,000); active = well fitted inhibition curve with a large enough effect; inconclusive = small, poorly fitted or top-dose-only effect; inactive = no such curve, though single readings can be large or run the other way; tested in mouse RAW 264.7 cells; note: potency is the fitted concentration of half-maximal effect; % is set by controls: 0 for no effect and ±100 for the full control effect; nearly all actives have a fitted effect of over 55% in size
TRPML1 agonist: agonists of human TRPML1 channel; Q9GZU1; TRPML1-expressing cells, Ca2+ dye fluorescence, FDSS; activation, % (concentration not given with the values); actives 0.12% (n = 410,000); AID 624414; in the data active = activation above about 50%; inconclusive = mostly about 30% to 49%; note: 0% is about no effect
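Cells: TRPML1-DL, 1X Tet inducer, ~16 h at 37 degrees C/5% CO2. Dye: ABD Ca8 no-wash + quencher, 45-90 min RT. Read: 10 s baseline, compound add, 110 s agonist phase; 54-4 EC80 (4uM final), 110 s antagonist phase.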
TRPML1 inh: inhibitors of human TRPML1 channel; Q9GZU1; AID 624415; TRPML1-inducible cells, Ca2+ dye fluorescence, FDSS; active compounds read low; inhibition of EC80 agonist-evoked calcium signal; actives 0.02% (n = 390,000); activity change, negative = inhibition, % (concentration not given with the values); in the data active = activity change below about -50%; inconclusive = between about -30% and that limit;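 note: stimulus is agonist 54-4 at its EC80 concentration; % is set by controls: 0 for no effect and ±100 for the full control effect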
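Calcium fluorescence in TRPML1-DL cells induced overnight with Tet: a 110 s read after compound pin addition, then a 110 s antagonist read after challenge with 54-4 at 4 uM final (EC80).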
miR-21 FLuc: miR-21 reporter, rising signal. HeLa miR-21 FLuc reporter, luciferase, 48 h. Potency, µM (titrated, usually from 38.3 µM), without a hit: at the top dose reporter change, positive = more light. 340,000 tested, under 10 active. AID 2288; active = well fitted rising curve with a large enough effect; inconclusive = small, poorly fitted or top-dose-only effect; inactive = no such curve, though single readings can be large or run the other way;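 also: % of control where 0% means no effect; miR-21 action dims this reporter so a rising signal means less miR-21 action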
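HeLa miR-21-FLuc reporter line, endogenous miR-21; 2000 cells/well in DMEM/10% FBS; compound titration up to ~40uM final, 48 h, 37 degree Celsius; luciferase detection reagent, 15 min lysis, CCD luminescence.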
* hit, by the source's call; ? = inconclusive; · = no result given. Most compounds without a hit are left out; they make up all but 0.34% or so of the library.

| structure | uPA generation | TRPML1 agonist | TRPML1 inh | miR-21 FLuc |
| --- | --- | --- | --- | --- |
| O=C1c2cccnc2-c2ncccc21 | -1.3% | 0.3 | 11.0 | 2.2% |
| CC(C)(C)n1ncc2c(=O)n(Cc3c(F)cc(Cl)cc3F)cnc21 | · | 1.6 | -14.0 | · |
| C/C(=N\Nc1ccc([N+](=O)[O-])cc1[N+](=O)[O-])c1ccc(-n2nncc2C(C)(C)C)cc1 | -2.0% | 76.0* | -1.5 | 1.1% |
| NC(=O)Nc1ccc(/C=C2\C=Cc3ccccc32)cc1 | · | -0.7 | · | · |
| C=CC(=O)N1CCC[C@@H](n2nc(-c3ccc(Oc4ccccc4)cc3)c3c(N)ncnc32)C1 | · | 1.3 | · | · |
| Cc1[nH]c2ccccc2c1C(=O)C(C)Sc1nc2ccccc2c(=O)n1Cc1cccnc1 (centres undefined) | · | -0.6 | · | · |
| CC(=O)C[C@H]1c2cc(F)cc(F)c2S(=O)(=O)N1C1CCN(Cc2ccccc2)CC1 | · | -0.1 | · | · |
| COC(=O)[C@@]1(Cc2ccc(OC)cc2)[C@@H]2C(=CC(=O)[C@H]2CC(=O)C(=O)N2CCCC2)CN1C(=O)c1ccccc1 | 8.91µM* | -0.4 | -2.7 | ? |
| CC(C)OC(=O)c1c(-c2ccccc2)c(-c2ccccc2)nn(C)c1=O | · | 3.2 | ? | 11.7µM* |
| CC(=O)Nc1ccc(/C=C/c2ccnc3ccccc23)cc1[N+](=O)[O-] | · | 0.6 | · | · |
| CC[N+]1(CC(=O)c2ccc(Br)cc2)CCCCC1 | · | 0.0 | · | · |
| S=C(NCc1ccco1)N1CCN(Cc2ccco2)CC1 | 0.9% | 1.1 | -2.9 | -0.9% |
| S=C(Nc1ccc2c(c1)OCO2)N1CCN(Cc2ccco2)CC1 | 4.47µM* | 0.3 | -1.0 | -7.4% |
| O=C(COc1ccc(Cl)cc1Cl)NCC1(N2CCOCC2)CCCCC1 | -0.2% | 0.3 | 6.3 | · |
| Cc1ccc(C(C)C)c(OCC(=O)NCC2(N3CCOCC3)CCCCC2)c1 | · | 75.5* | -19.9 | 23.5% |
| CCCCOC(=O)c1ccc(NC(=O)COC(=O)CN2C(=O)NC3(CCCC3)C2=O)cc1 | -0.4% | 0.5 | 12.4 | · |
| CCCCOC(=O)c1ccc(NC(=O)CN2C(=O)NC3(CCCCCC3)C2=O)cc1 | 8.91µM* | 0.1 | -1.7 | · |
| CCC[N+](C)(C)c1ccc(/C=C/c2ccncc2)cc1 | · | 16.5 | · | · |
| COc1cc2nc(N(C)C)nc(NC3CCN(C)CC3)c2cc1OC | · | -0.3 | · | · |
| O=C(CCC(=O)N1CCN(c2ccc(O)cc2)CC1)c1cccs1 | 3.98µM* | -1.1 | 4.8 | -38.4% |
| O=[N+]([O-])c1ccc(/C=C2\C=C(C(O)c3ccc([N+](=O)[O-])cc3)c3ccccc32)cc1 (centres undefined) | · | -0.3 | · | · |
| COc1cc2c(NC3CCN(C(C)C)CC3)nc(N3CCCN(C)CC3)nc2cc1OCCOCCN(C)C | · | -0.2 | · | · |
| Cc1cccc(/C=C/C(=O)c2ccc([N+](=O)[O-])o2)c1 | 7.08µM* | 1.3 | 22.3 | · |
| O=C(/C=C/c1cccc([N+](=O)[O-])c1)c1ccc([N+](=O)[O-])o1 | ? | 0.9 | 9.6 | · |
| O=[N+]([O-])c1ccc(Nc2nc(NCCN3CCOCC3)nc(Nc3ccc(I)cc3)n2)cc1 | · | -0.5 | · | · |
| CCOc1ccc(-c2cn3ccccc3n2)cc1[N+](=O)[O-] | -10.3% | 0.5 | -15.2 | -79.7% |
| CCCCOc1ccc(-c2cn3ccccc3n2)cc1[N+](=O)[O-] | 7.94µM* | -1.3 | -8.3 | -19.8% |
| Cc1c(C#N)c(NC(=O)CCl)n(Cc2cccs2)c1C | 5.01µM* | -0.1 | -2.8 | ? |
| O=[N+]([O-])c1ccc2c(c1)/C(=C/c1ccc(C=S)cc1)C=C2 | · | -0.7 | · | · |
| O=C(/C=C/c1ccccc1Cl)Nc1cccc(O)c1 | 4.47µM* | -1.5 | -2.4 | 15.0% |
| O=CC(=O)c1ccc(F)cc1 | · | -0.9 | · | · |
| COc1cccc2nc3cc(C)c(C)cc3nc12 | 3.16µM* | 2.3 | 12.9 | 5.2% |
| Cc1ccc(S(=O)(=O)Oc2ccccc2-c2ccccc2)cc1 | -14.2% | 99.6* | -23.7 | · |
| CCCCN(CCCC)c1ccc(Cn2ccc3ccccc32)cc1 | · | -0.1 | · | · |
| Cc1cc(C(=O)COC(=O)c2cccnc2Cl)c(C)n1CC1CCCO1 (centres undefined) | 1.58µM* | 3.6 | -13.6 | -6.5% |
| Nc1nc(N)c2c(OCc3ccc(C(F)(F)F)cc3)cccc2n1 | · | 9.8 | · | · |
| CC1(C)N=c2ccc([N+](=O)[O-])c(N)c2=[N+]1[O-] | 10µM* | 2.2 | 23.0 | 7.0% |
| Cc1ccc(N)c([N+](=O)[O-])c1 | 4.9% | -0.7 | -7.9 | · |
| CC(C)(C)n1ncc2c(=O)n(Cc3ccccc3Cl)cnc21 | · | 2.3 | -0.7 | · |
| O=C1c2cccc3c(O)ccc(c23)C(=O)N1Cc1ccccc1 | -5.7% | 97.0* | -0.5 | -4.2% |
